{
  "source": "PubChem BioAssay (NCI)",
  "experiment_in_all_cases": "DTP human tumour cell line panel, 48 h",
  "key": {"CAKI-1 renal": {"system": "CAKI-1 renal"}, "SF-539 CNS": {"system": "SF-539 CNS"}, "NCI/ADR-RES ovarian": {"system": "NCI/ADR-RES ovarian"}, "HL-60(TB) leukemia": {"system": "HL-60(TB) leukemia"}, "RXF 393 renal": {"system": "RXF 393 renal"}, "SF-268 CNS": {"system": "SF-268 CNS"}, "SNB-19 CNS": {"system": "SNB-19 CNS"}, "COLO 205 colon": {"system": "COLO 205 colon"}, "SK-OV-3 ovarian": {"system": "SK-OV-3 ovarian"}, "NCI-H226 lung": {"system": "NCI-H226 lung"}, "OVCAR-8 ovarian": {"system": "OVCAR-8 ovarian"}, "SW-620 colon": {"system": "SW-620 colon"}, "LOX IMVI melanoma": {"system": "LOX IMVI melanoma"}, "SK-MEL-5 melanoma": {"system": "SK-MEL-5 melanoma"}, "MDA-MB-231 breast": {"system": "MDA-MB-231 breast"}, "PC-3 prostate": {"system": "PC-3 prostate"}, "HT29 colon": {"system": "HT29 colon"}, "K-562 leukemia": {"system": "K-562 leukemia"}, "UACC-257 melanoma": {"system": "UACC-257 melanoma"}, "SK-MEL-28 melanoma": {"system": "SK-MEL-28 melanoma"}, "U251 CNS": {"system": "U251 CNS"}, "NCI-H522 lung": {"system": "NCI-H522 lung"}, "BT-549 breast": {"system": "BT-549 breast"}, "SNB-75 CNS": {"system": "SNB-75 CNS"}, "NCI-H23 lung": {"system": "NCI-H23 lung"}, "IGROV1 ovarian": {"system": "IGROV1 ovarian"}, "DU-145 prostate": {"system": "DU-145 prostate"}, "HCT-15 colon": {"system": "HCT-15 colon"}, "MOLT-4 leukemia": {"system": "MOLT-4 leukemia"}, "RPMI-8226 leukemia": {"system": "RPMI-8226 leukemia"}, "HCT-116 colon": {"system": "HCT-116 colon"}, "UACC-62 melanoma": {"system": "UACC-62 melanoma"}, "MALME-3M melanoma": {"system": "MALME-3M melanoma"}, "A549 NSCLC": {"system": "A549 NSCLC"}, "ACHN renal": {"system": "ACHN renal"}, "KM12 colon": {"system": "KM12 colon"}, "MDA-N": {"system": "MDA-N"}, "M14 melanoma": {"system": "M14 melanoma"}, "OVCAR-3 ovarian": {"system": "OVCAR-3 ovarian"}, "SF-295 CNS": {"system": "SF-295 CNS"}, "SN12C renal": {"system": "SN12C renal"}, "CCRF-CEM leukemia": {"system": "CCRF-CEM leukemia"}, "T-47D breast": {"system": "T-47D breast"}, "OVCAR-5 ovarian": {"system": "OVCAR-5 ovarian"}, "MDA-MB-435": {"system": "MDA-MB-435"}, "TK-10 renal": {"system": "TK-10 renal"}, "MCF7 breast": {"system": "MCF7 breast"}, "786-0 renal": {"system": "786-0 renal"}, "HCC-2998 colon": {"system": "HCC-2998 colon"}, "UO-31 renal": {"system": "UO-31 renal"}, "HOP-62 NSCLC": {"system": "HOP-62 NSCLC"}, "EKVX NSCLC": {"system": "EKVX NSCLC"}, "SR leukemia": {"system": "SR leukemia"}},
  "note": "Some of these compounds have results that are not shown, active ones among them.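 Assay format: 96-well plates, 48-hour exposure. Definition used: TGI = concentration required for complete inhibition of growth.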",
  "data": [
    {"smiles": "CN1CCC=C(COC(=O)C(O)(c2ccccc2)C2CCCC2)C1", "note": "(stereo not drawn)", "values": [
      {"measurement": "TGI", "setting": "CAKI-1 renal", "value": "> 100", "unit": "µM"},
      {"measurement": "TGI", "setting": "SF-539 CNS", "value": "> 100", "unit": "µM"},
      {"measurement": "TGI", "setting": "NCI/ADR-RES ovarian", "value": "> 100", "unit": "µM"},
      {"measurement": "TGI", "setting": "HL-60(TB) leukemia", "value": "> 100", "unit": "µM"},
      {"measurement": "TGI", "setting": "RXF 393 renal", "value": "> 100", "unit": "µM"},
      {"measurement": "TGI", "setting": "SF-268 CNS", "value": "> 100", "unit": "µM"},
      {"measurement": "TGI", "setting": "SNB-19 CNS", "value": "> 100", "unit": "µM"},
      {"measurement": "TGI", "setting": "COLO 205 colon", "value": "> 100", "unit": "µM"},
      {"measurement": "TGI", "setting": "SK-OV-3 ovarian", "value": "> 100", "unit": "µM"},
      {"measurement": "TGI", "setting": "NCI-H226 lung", "value": "> 100", "unit": "µM"},
      {"measurement": "TGI", "setting": "OVCAR-8 ovarian", "value": "> 100", "unit": "µM"},
      {"measurement": "TGI", "setting": "SW-620 colon", "value": "> 100", "unit": "µM"},
      {"measurement": "TGI", "setting": "LOX IMVI melanoma", "value": "> 100", "unit": "µM"},
      {"measurement": "TGI", "setting": "SK-MEL-5 melanoma", "value": "> 100", "unit": "µM"},
      {"measurement": "TGI", "setting": "MDA-MB-231 breast", "value": "> 100", "unit": "µM"},
      {"measurement": "TGI", "setting": "PC-3 prostate", "value": "> 100", "unit": "µM"},
      {"measurement": "TGI", "setting": "HT29 colon", "value": "> 100", "unit": "µM"},
      {"measurement": "TGI", "setting": "K-562 leukemia", "value": "> 100", "unit": "µM"},
      {"measurement": "TGI", "setting": "UACC-257 melanoma", "value": 81.9, "unit": "µM"},
      {"measurement": "TGI", "setting": "SK-MEL-28 melanoma", "value": "> 100", "unit": "µM"},
      {"measurement": "TGI", "setting": "U251 CNS", "value": "> 100", "unit": "µM"},
      {"measurement": "TGI", "setting": "NCI-H522 lung", "value": "> 100", "unit": "µM"},
      {"measurement": "TGI", "setting": "BT-549 breast", "value": "> 100", "unit": "µM"},
      {"measurement": "TGI", "setting": "SNB-75 CNS", "value": "> 100", "unit": "µM"},
      {"measurement": "TGI", "setting": "NCI-H23 lung", "value": "> 100", "unit": "µM"},
      {"measurement": "TGI", "setting": "IGROV1 ovarian", "value": "> 100", "unit": "µM"},
      {"measurement": "TGI", "setting": "DU-145 prostate", "value": "> 100", "unit": "µM"},
      {"measurement": "TGI", "setting": "HCT-15 colon", "value": "> 100", "unit": "µM"},
      {"measurement": "TGI", "setting": "MOLT-4 leukemia", "value": "> 100", "unit": "µM"},
      {"measurement": "TGI", "setting": "RPMI-8226 leukemia", "value": "> 100", "unit": "µM"},
      {"measurement": "TGI", "setting": "HCT-116 colon", "value": "> 100", "unit": "µM"},
      {"measurement": "TGI", "setting": "UACC-62 melanoma", "value": "> 100", "unit": "µM"},
      {"measurement": "TGI", "setting": "MALME-3M melanoma", "value": "> 100", "unit": "µM"},
      {"measurement": "TGI", "setting": "A549 NSCLC", "value": "> 100", "unit": "µM"},
      {"measurement": "TGI", "setting": "ACHN renal", "value": "> 100", "unit": "µM"},
      {"measurement": "TGI", "setting": "KM12 colon", "value": "> 100", "unit": "µM"},
      {"measurement": "TGI", "setting": "MDA-N", "value": "> 100", "unit": "µM"},
      {"measurement": "TGI", "setting": "M14 melanoma", "value": "> 100", "unit": "µM"},
      {"measurement": "TGI", "setting": "OVCAR-3 ovarian", "value": "> 100", "unit": "µM"},
      {"measurement": "TGI", "setting": "SF-295 CNS", "value": "> 100", "unit": "µM"},
      {"measurement": "TGI", "setting": "SN12C renal", "value": "> 100", "unit": "µM"},
      {"measurement": "TGI", "setting": "CCRF-CEM leukemia", "value": "> 100", "unit": "µM"},
      {"measurement": "TGI", "setting": "T-47D breast", "value": "> 100", "unit": "µM"},
      {"measurement": "TGI", "setting": "OVCAR-5 ovarian", "value": "> 100", "unit": "µM"},
      {"measurement": "TGI", "setting": "MDA-MB-435", "value": "> 100", "unit": "µM"},
      {"measurement": "TGI", "setting": "TK-10 renal", "value": "> 100", "unit": "µM"},
      {"measurement": "TGI", "setting": "MCF7 breast", "value": "> 100", "unit": "µM"},
      {"measurement": "TGI", "setting": "786-0 renal", "value": "> 100", "unit": "µM"},
      {"measurement": "TGI", "setting": "HCC-2998 colon", "value": "> 100", "unit": "µM"},
      {"measurement": "TGI", "setting": "UO-31 renal", "value": "> 100", "unit": "µM"},
      {"measurement": "TGI", "setting": "HOP-62 NSCLC", "value": "> 100", "unit": "µM"},
      {"measurement": "TGI", "setting": "EKVX NSCLC", "value": "> 100", "unit": "µM"},
      {"measurement": "TGI", "setting": "SR leukemia", "value": "> 100", "unit": "µM"}
    ]}
  ]
}
